# Values quoted from earlier work in patent publication US20230265065A1 (WEST VIRGINIA UNIVERSITY BOARD OF GOVERNORS ON BEHALF OF …, priority 2020, published 2023).
# Legend:
# Ptprd knockout mice = details: cited from earlier work
# wild-type mice = details: cited from earlier work
smiles,measurement,setting,value
CCCCOc1cc2c(c(C=O)c1OC)CC(O)OC2=O (centres unmarked),cocaine conditioned place preference and self-administration,Ptprd knockout mice,but not in the Ptprd knockout mice
same,cocaine conditioned place preference and self-administration,wild-type mice,reduces cocaine conditioned place preference and self-administration
